Data: patent US4317775A (Hoffmann-La Roche Inc., priority 1980, dated 1982)

Tested on: S. aureus
Experiment: In vivo activity against systemic infection in mice, S. aureus
Settings: oral, in mg/kg
Excerpt: The PD50 is the protective dose for 50% of the animals treated against a challenge organism.

`CC1(C)S[C@@H]2[C@H](NC(=O)[C@@H](c3ccc(O)cc3)N(C3CCCCO3)C3CCCCO3)C(=O)N2[C@H]1C(=O)O` (relative stereo) [Compound II, {2S-[2α,5α,6β(S*)]}-6-[bis(tetrahydro-2-H-pyran-2-yl)amino]{[(4-hydroxyphenyl)acetyl]amino}-3,3-dimethyl-7-oxo-4-thia-1-azabicyclo[3.2.0]heptane3-carboxylic acid sodium salt] showed a PD50 of 0.6.

Structures can show the parent of a compound that is named as a salt.
